{
  "source": "patent US6969760B2",
  "about": "“Jak kinases and regulation of cytokine signal transduction” (St. Jude Children's Research Hospital, priority 1993, dated 2005)",
  "test_system": "Jak3 and Jak1",
  "assay": "IL-2/IL-4-induced tyrosine phosphorylation of Jaks in CTLL cells",
  "assay_type": "cell-based, murine",
  "procedure": "IL-2 and IL-4 stimulation of Jak1 and Jak3 tyrosine phosphorylation and activation of Jak3 in vitro kinase activity. FIG. 9A: CTLL cells were deprived of growth factors for 14 hr and were either left unstimulated (lanes 1, 4, 7 and 10), were stimulated with 100 U/ml with IL-2 (Cetus) for 10 min (lanes 2,5,8 and 11) or were stimulated with 100 ng/ml of IL-4 (R&D) for 10 min (lanes 3, 6, 9 and 12). Extracts were prepared as previously described (Witthuhn et al., Cell: 227-236 (1993)) and used for immunoprecipitation with the indicated antisera. The immunoprecipitates were resolved by SDS-PAGE, electrophoretically transferred to nitrocellulose and the membranes were probed with the 4G10 monoclonal antibody (UBI) against phosphotyrosine. FIG. 9B: CTLL cells were deprived of growth factors for 14 hr and were either unstimulated (lane 1), stimulated with IL-2 (lane 2) or stimulated with IL-4 (lane 3) as above. Extracts were prepared and used for immunoprecipitation with the Jak3/Jak1 cross-reactive antipeptide antiserum against Tyk2. […]\nTo assess the role of Jak3 in signalling, the ability of several cytokines to induce Jak3 tyrosine phosphorylation was examined by immunoprecipitation and western blotting with a monoclonal antibody against phosphotyrosine. […] No tyrosine phosphorylation of Jak2 or Tyk2 was detected with Jak2 or Tyk2 specific antiserum.",
  "data": [
    {"substance": "IL-2: IL-2 (Cetus), cytokine", "values": [
      {"measurement": "onset of phosphorylation of the Jaks following stimulation", "result": "detectable within one minute"}
    ]}
  ]
}
